Source: US20200237742A1, “Serdexmethylphenidate Conjugates, Compositions And Methods Of Use Thereof” (priority 2018, published 2020)

Settings: human, in vivo, iv
Description: A study was conducted in humans to assess the intravenous abuse potential of serdexmethylphenidate relative to unconjugated d-methylphenidate and placebo in recreational stimulant abusers. This was a Phase 1, randomized, double-blind study in which serdexmethylphenidate and d-methylphenidate were administered intravenously in recreational stimulant users with a history of non-oral abuse. In Part A of the study, subjects (Cohort 1) participated in a dose-escalation phase to determine the optimal dose of intravenous d-methylphenidate based on tolerability and abuse-related pharmacodynamic assessments. […] The doses of serdexmethylphenidate and d-methylphenidate are equivalent with respect to molar amount of d-methylphenidate. FDA-recommended abuse potential measures and blood samples were collected at different times after dosing. Safety assessments were performed throughout the study.

For `COC(=O)[C@H](c1ccccc1)[C@H]1CCCCN1` [d-methylphenidate hydrochloride, d-threo-methylphenidate hydrochloride], the “AUCinf, GLSM” value was 237.6, the “AUClast, GLSM” value was 233.7 and the “Cmax, GLSM” value was 58.3. The T1/2 was 3.89 h and the Tmax was 0.375 h.

Counter-ions that a name gives are not always drawn.
